Legend:
[1] = target: T1, Opioid receptors; mu/kappa/delta (Homo sapiens) (UniProt P41145+P41143+P35372); test: Displacement of [3H]naloxone from opioid receptor (unknown origin) relative to nalorphine
[2] = target: T1, Opioid receptors; mu/kappa/delta (Homo sapiens); test: Displacement of [3H]naloxone from opioid receptor (unknown origin) relative to morphine

Row | SMILES | fold change (FC) [1] | fold change (FC) [2]
1 | CCC[C@@](C)(O)C1C[C@@]23C=C[C@]1(OC)[C@@H]1Oc4c(O)ccc5c4[C@@]12CCN(CC1CC1)[C@@H]3C5 (stereo partly drawn) | 0.3 | 1000
2 | C=CCN1CC[C@]23c4c5ccc(O)c4O[C@H]2[C@@]2(OC)C=C[C@@]3(CC2[C@](C)(O)CCC)[C@H]1C5 (stereo partly drawn) |  | 60
